# Values quoted from earlier work as cited in publication PMC10939898.
# Amino acid sequences for entries named in this document (tags omitted). A change or cut given only in a name is not applied to a line headed by its entry.
# UniProt P61077: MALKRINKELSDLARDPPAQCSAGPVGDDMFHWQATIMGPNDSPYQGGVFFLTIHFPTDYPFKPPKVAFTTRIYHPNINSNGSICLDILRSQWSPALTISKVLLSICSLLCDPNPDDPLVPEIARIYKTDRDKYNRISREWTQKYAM
# Molecular target: UbcH5c (Homo sapiens) (UniProt P61077)
# Conditions: cited from earlier work
substance,measurement,value
ubiquitin (from UniProt P0CG48),Kd,300 µM
